# Literature values as cited in patent US20170135979A1, “PDE-DELTA INHIBITOR FOR THE TREATMENT OF CANCER” (Macau University of Science and Technology, priority 2015, published 2017).
# Amino acid sequences for entries named in this document (tags omitted). A change or cut given only in a name is not applied to a line headed by its entry.
# UniProt O43924: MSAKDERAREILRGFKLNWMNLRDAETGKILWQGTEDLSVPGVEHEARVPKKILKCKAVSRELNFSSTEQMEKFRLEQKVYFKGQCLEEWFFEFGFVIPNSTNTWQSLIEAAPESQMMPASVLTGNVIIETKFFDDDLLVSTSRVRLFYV
# Biological target: K-RAS-PDEδ interaction (Homo sapiens, UniProt O43924)
# Conditions: cited from earlier work
smiles,measurement,value
c1ccc(Cn2c(-c3ccc(OC[C@H](C4CCNCC4)n4c(-c5ccccc5)nc5ccccc54)cc3)nc3ccccc32)cc1 [Deltarasin],K-RAS-PDEδ interaction,inhibited
